Data on one molecule can be found in ChEMBL document CHEMBL1944614, “A scaffold hopping approach to identify novel monoamine oxidase B inhibitors” (Bioorg Med Chem Lett, 2012).

Sequences of proteins named here, by UniProt entry; tags and fusion partners are left off.
UniProt P27338, whole entry: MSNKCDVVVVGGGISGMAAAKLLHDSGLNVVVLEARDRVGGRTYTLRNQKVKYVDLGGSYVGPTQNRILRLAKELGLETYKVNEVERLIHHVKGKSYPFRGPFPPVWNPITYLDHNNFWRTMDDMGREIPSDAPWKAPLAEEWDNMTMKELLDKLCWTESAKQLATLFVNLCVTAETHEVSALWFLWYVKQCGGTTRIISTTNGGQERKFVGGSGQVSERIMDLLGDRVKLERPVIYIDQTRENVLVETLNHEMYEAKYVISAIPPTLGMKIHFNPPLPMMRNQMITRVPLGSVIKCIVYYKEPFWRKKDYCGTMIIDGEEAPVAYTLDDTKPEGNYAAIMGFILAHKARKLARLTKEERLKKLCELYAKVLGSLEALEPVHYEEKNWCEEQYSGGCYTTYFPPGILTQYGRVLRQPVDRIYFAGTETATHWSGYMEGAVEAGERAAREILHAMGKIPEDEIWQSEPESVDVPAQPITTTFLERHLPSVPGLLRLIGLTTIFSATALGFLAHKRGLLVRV

This assay deals with Amine oxidase [flavin-containing] B (Homo sapiens, UniProt P27338). Briefly: Inhibition of human recombinant MAOB using kynuramine as substrate by fluorimetry.

Structures are written as SMILES.

As usually defined, the IC50 is the concentration needed to halve the response being measured. In the case of `CN(C)c1ccc(/C=C2\Oc3cc(O)ccc3C2=O)cc1`, the IC50 stood at 242 nM.
